Patent US11274348B2, “Use of biomarkers in determining susceptibility to disease treatment” (SINGAPORE HEALTH SERVICES PTE LTD, priority 2016, dated 2022)

Assays:
[1] = tested on: oral squamous cell cancer; assay: Clinical response of oral squamous cell cancer patients to gefitinib; assay type: in vivo, human; details: three patients, all A/A genotype
[2] = tested on: NCC-HN19 and NCC-HN64 (A/A); assay: Gefitinib sensitivity after EGFR isoform D knockdown (shIsoD); assay type: cell-based, human; details: shIsoD compared to non-targeted controls
[3] = tested on: EGFR, AKT, ERK and S6 phosphorylation in NCC-HN19 and NCC-HN64 (A/A genotype); assay: Western blot of EGFR pathway activation; assay type: cell-based, human
[4] = tested on: NCC-HN1 and NCC-HN43 (G/G genotype); assay type: cell-based, human
[5] = tested on: phosphor-AKT, phosphor-S6 and phosphor-ERK in NCC-HN1 and NCC-HN43 (G/G genotype); assay: Western blot of EGFR pathway activation; assay type: cell-based, human; details: G/G genotype lines
[6] = tested on: head and neck squamous cell cancers (HNSCC), recurrent, metastatic disease; details: monotherapy, metastatic setting; cited from earlier work

Compound	response of EGFR wild type patients [1]	gefitinib sensitivity after isoform D knockdown [2]	EGFR, AKT, ERK and S6 phosphorylation ([3]; after treatment with therapeutic doses of gefitinib)	downstream pathway modulation after reduced expression of isoform D ([3]; shIsoD relative to non-targeting controls, AA-genotype lines)	gefitinib sensitivity after isoform D knockdown [4]	gefitinib sensitivity promoted by EGFR-AS1 knock-down, with concurrent isoform D knockdown [4]	effect on phosphor-ERK [5]	effect on phosphor-AKT and phosphor-S6 levels ([5]; in contrast to A/A lines)	response rates [6] [%]
COc1cc2ncnc(Nc3ccc(F)c(Cl)c3)c2cc1OCCCN1CCOCC1 [gefitinib]	exceptional responders	rendered more resistant	significant and consistent reduction	attenuated the impact of gefitinib on downstream pathway modulation	no significant effect	abrogated	modest, if any effect	required much higher drug doses	
cetuximab									13
